Patent US20250176553A1, “SOLUTION FOR […] AND METHOD OF PRODUCING THEREOF” (OCT, Inc., priority 2022, published 2025)
Where “and” joins values, the source holds several entries; their conditions need not be identical. Identical values can stand only once. Like-named read-outs stand apart in the source and are kept apart here.

Legend:
[1] = system: Streptococcus mutans biofilms; details: for Absorbance: individual samples 1-6, medium replaced after biofilm formation, further 24 hours
Source text: (§1) FIGS. 3 to 6 show the experimental results in which Streptococcus mutans strains are actually used. Streptococcus mutans is a facultative anaerobe and a gram-positive streptococcus. It produces insoluble, sticky glucans that stick to tooth surfaces. It is one of the bacteria that mainly cause dental caries. THB (TODD-HEWITT BROTH) supplemented with 2% (w/v) sucrose was used as the medium. Sucrose is a sugar composed of the monosaccharides glucose and fructose with an α-1,2-glycosidic linkage and one of the disaccharides. THB manufactured by Becton, Dickinson and Company was used. For sucrose, “CASRN” manufactured by FUJIFILM Wako Pure Chemical Corporation was used. The plate used for culture was a Thermo Scientific Nunclon Delta Surface 96 well. The incubator used was a Panasonic multi-gas incubator MCO-5MUV-PJ. Culturing was conducted at 37° C. under an atmosphere of 5% CO2 gas, 5% O2 gas and 90% N2 gas.
(§2) Devices and the like used to measure residual biofilms are described below. For staining, 0.1% Crystal Violet from FUJIFILM Wako Pure Chemical Corporation was used. It was dissolved in distilled water to 0.1% (w/v).
(§3) Life Technologies EVOS XL Core was used as the microscope for photography. […] Co., Ltd. was used as the absorption spectrometer. The data processing software was “SF6” and the absorbance wavelength was 590 nm.
Streptococcus mutans was diluted in 2% sucrose-containing THB and 10 inoculated samples of 100 μL each were plated onto cell culture plates (Thermo Scientific Nunclon Delta Surface 96well). The samples were then cultured in a multi-gas incubator for 24 hours to allow biofilms to form on the bottom of each plate.
The media were removed and the plates were washed with distilled water 24 hours after the start of cultivation. […] The samples were further cultured in a multi-gas incubator for 24 hours. After culturing, the plates were washed with distilled water and stained with 0.1% Crystal Violet solution for 10 minutes. After staining, the plates were washed again with distilled water, dried and then observed and photographed using a bright field inverted microscope.

[2] = system: Streptococcus mutans biofilms; details: average of samples 1-6, 590 nm
Source text: as §1, §2, §3
Streptococcus mutans was diluted in 2% sucrose-containing THB and 10 inoculated samples of 100 μL each were plated onto cell culture plates (Thermo Scientific Nunclon Delta Surface 96well). […] No test solution was added to one of the 10 inoculated samples.
The samples were then cultured in a multi-gas incubator for 24 hours to allow biofilms to form on the bottom of each plate. After culturing, the plates were washed with distilled water and stained with 0.1% Crystal Violet solution for 10 minutes. After staining, the plates were washed again with distilled water, dried and then observed and photographed with a bright field inverted microscope.
Crystal Violet was then extracted with 100 μL of 99.5% ethanol (FUJIFILM Wako Pure Chemical Corporation), and the absorbance was measured at a wavelength of 590 nm using an absorption spectrometer grating microplate reader.

In the case of `[2H]OS(=O)(=O)O[2H]` [deuterated sulfuric acid (D2SO4)], the Absorbance ([1]; pH 0.5) is reported as 0.744, the Absorbance ([1]; pH 0.8) is reported as 0.752 and 0.795 and 0.782 and the “Absorbance, Average value” ([1]; pH 1.2, average of samples 1-6) is reported as 0.783. The Absorbance ([1]; pH 1.2) was 0.836 and 0.771, the “Absorbance, Average value” ([2]; pH 2.3) was 0.785 and the “Absorbance, Average value” ([2]; pH 2.7) was 0.794. The “Absorbance, Average value” ([2]; pH 3.0) was 0.787, the “Absorbance, Average value” ([2]; pH 3.3) was 0.827 and the “Absorbance, Average value” ([2]; pH 3.7) was 0.830. For the same molecule, the “Absorbance, Average value” ([2]; pH 4.0) was 0.793.
